Source: patent publication US20230099031A1, “BIFUNCTIONAL AGENTS FOR PROTEIN RECRUITMENT AND/OR DEGRADATION” (Orionis Biosciences, Inc., priority 2019, published 2023)

Tested on: IKZF1, ASS1 and SALL4
Experiment: Recruitment assessment: recruitment of any tested substrate from among IKZF1, ASS1 and SALL4 (MAPPIT-like recruitment assays)
Assay type: cell-based
Settings: any tested substrate among IKZF1, ASS1, SALL4 at any tested concentration

Structure (SMILES) | Recruitment Assessment
O=C1CCc2cc(C(=O)N3CCCc4ccccc43)cnc2N1 | FALSE
O=C1CCC(N2C(=O)C3=C(CCC3)C2=O)C(=O)N1 (stereo not drawn) | FALSE
CC(=O)Nc1cccc2c1CN(C1CCC(=O)NC1=O)C2=O (stereo not drawn) | TRUE
